This is a selection; strong and weak results do not stand in their true shares. Activity calls are given as the source filed them.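 How the source made its calls: active means inhibition above about 30% (limit read from the data); inactive means the rest.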
These compounds were tested against Eukaryotic translation initiation factor 4E (Mus musculus) + Eukaryotic translation initiation factor 4 gamma 1 (Homo sapiens) (UniProt P63073+Q04637) (assay: eIF4E–eIF4G protein interaction inhibitors, primary screen, biochemical, uHTS, TR-FRET, eIF4GI fragment (AID 782;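 further: 0% = full FRET control wells and 100% = background wells lacking eIF4GI fragment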)). Settings: TR-FRET eIF4E-eIF4GI(517-606) binding, 2 h; at 21.7 µM; stronger effect = higher value.

Sequences of proteins named here, by UniProt entry; tags and fusion partners are left off.
UniProt P63073, whole entry, looked up: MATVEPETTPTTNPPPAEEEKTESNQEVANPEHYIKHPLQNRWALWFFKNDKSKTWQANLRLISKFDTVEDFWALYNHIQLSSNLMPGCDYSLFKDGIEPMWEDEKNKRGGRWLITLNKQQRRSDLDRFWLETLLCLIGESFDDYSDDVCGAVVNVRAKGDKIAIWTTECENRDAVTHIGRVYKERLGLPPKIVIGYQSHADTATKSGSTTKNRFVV
UniProt Q04637, whole entry, looked up: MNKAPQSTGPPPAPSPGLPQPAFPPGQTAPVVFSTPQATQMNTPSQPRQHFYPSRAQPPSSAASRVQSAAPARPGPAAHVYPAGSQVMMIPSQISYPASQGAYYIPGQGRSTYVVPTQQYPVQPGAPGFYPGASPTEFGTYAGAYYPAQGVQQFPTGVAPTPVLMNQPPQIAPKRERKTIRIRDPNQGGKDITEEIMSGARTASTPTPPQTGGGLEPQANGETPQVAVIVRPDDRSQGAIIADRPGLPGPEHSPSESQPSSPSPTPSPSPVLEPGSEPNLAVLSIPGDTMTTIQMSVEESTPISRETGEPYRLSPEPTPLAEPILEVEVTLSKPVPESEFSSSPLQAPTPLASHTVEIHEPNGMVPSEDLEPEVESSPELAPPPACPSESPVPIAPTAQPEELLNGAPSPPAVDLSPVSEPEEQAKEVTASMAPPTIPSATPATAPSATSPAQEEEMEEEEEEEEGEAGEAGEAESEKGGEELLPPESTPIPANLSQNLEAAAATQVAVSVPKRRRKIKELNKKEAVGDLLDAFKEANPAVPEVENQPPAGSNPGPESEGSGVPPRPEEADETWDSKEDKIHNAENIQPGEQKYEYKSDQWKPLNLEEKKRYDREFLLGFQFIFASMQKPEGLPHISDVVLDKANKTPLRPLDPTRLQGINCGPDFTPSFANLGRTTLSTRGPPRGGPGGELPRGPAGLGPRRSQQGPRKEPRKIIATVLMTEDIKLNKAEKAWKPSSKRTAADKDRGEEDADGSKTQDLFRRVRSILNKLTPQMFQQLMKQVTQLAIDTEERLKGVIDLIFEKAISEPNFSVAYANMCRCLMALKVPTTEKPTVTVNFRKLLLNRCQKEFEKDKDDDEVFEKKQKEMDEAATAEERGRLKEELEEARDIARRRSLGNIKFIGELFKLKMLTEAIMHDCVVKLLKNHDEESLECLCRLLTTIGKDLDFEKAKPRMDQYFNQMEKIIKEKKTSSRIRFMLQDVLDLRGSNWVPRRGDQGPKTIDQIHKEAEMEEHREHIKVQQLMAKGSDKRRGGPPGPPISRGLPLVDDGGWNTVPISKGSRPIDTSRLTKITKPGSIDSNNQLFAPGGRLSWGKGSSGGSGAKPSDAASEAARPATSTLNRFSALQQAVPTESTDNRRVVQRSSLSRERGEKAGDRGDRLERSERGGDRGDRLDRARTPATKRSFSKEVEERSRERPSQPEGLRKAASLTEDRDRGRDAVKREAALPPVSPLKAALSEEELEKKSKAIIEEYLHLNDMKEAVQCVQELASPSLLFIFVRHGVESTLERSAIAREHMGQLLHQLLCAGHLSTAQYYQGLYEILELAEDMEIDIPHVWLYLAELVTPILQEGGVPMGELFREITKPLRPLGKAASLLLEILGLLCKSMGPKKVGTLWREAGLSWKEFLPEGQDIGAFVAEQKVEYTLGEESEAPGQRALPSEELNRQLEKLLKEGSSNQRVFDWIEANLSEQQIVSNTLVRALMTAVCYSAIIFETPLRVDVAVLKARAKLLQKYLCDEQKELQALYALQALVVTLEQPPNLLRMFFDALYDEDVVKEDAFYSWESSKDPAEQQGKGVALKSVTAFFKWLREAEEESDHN

| SMILES | inhibition |
| --- | --- |
| Cc1ccc(OP(=O)(Nc2ccccn2)Oc2ccc(C)cc2)cc1 | inactive: 3.33% |
| CC(=O)NC(SC(=S)N(CC(C)C)CC(C)C)C(Cl)(Cl)Cl (stereo not given) | inactive: 0.81% |
| COC(=O)c1cc2c(s1)N=C(c1ccccc1)N(C)P2(=O)N1CCOCC1 (stereo not given) | inactive: -5.88% |
| O=c1c2cc([N+](=O)[O-])ccc2[nH]c2c([N+](=O)[O-])cc([N+](=O)[O-])cc12 | inactive: 7.28% |
| CN(C)C(=O)Oc1noc2ccccc12 | inactive: -9.04% |
| Cc1ccccc1OP(=O)(Nc1ccccn1)Oc1ccccc1C | inactive: -2.45% |
| CCOc1ccc(C2=NCC(CBr)S2)cc1 (stereo not given) | inactive: 1.37% |
| O=P1(Nc2nc3ccc(Cl)cc3s2)COc2ccccc2O1 (stereo not given) | inactive: 5.97% |
| CC(C)(C)C(=O)NC(Sc1ccccc1)C(Cl)(Cl)Cl (stereo not given) | inactive: 4.99% |
| C[C@H]1OP(=O)(Oc2ccccc2)C[C@@H]2O[C@@H]21 (stereo not given in full) | inactive: -1.19% |
| C[C@@H]1C=CCP(=O)(Oc2ccccc2)O1 (stereo not given in full) | inactive: -7.33% |
| CC(=O)Nc1ccc(Oc2c([N+](=O)[O-])cc([N+](=O)[O-])cc2[N+](=O)[O-])cc1 | inactive: 2.4% |
| CC(=O)Nc1ccc([As](=O)(O)O)c(O)c1 | inactive: -6.07% |
| CC(C)C(=O)NC(Sc1ccccc1)C(Cl)(Cl)Cl (stereo not given) | inactive: -0.23% |
| O=P(Nc1nccs1)(c1ccccc1)c1ccccc1 | inactive: -1.16% |
| c1nnnn1CCn1cnnn1 | inactive: -0.92% |
| O=P(Nc1ccccn1)(c1ccc(Br)cc1)c1ccc(Br)cc1 | inactive: -4.62% |
| C[C@H]1OP(=O)(Oc2ccccc2)[C@H](O)[C@H](O)[C@H]1N=[N+]=[N-] (stereo not given in full) | inactive: -2.31% |
| O=P(Nc1nc2ccccc2s1)(c1ccccc1)c1ccccc1 | inactive: 2.03% |
| O=[As](O)(c1ccccc1)c1ccc(O)cc1 | inactive: -4.56% |
| O=[N+]([O-])c1ncn(CCn2cnc([N+](=O)[O-])n2)n1 | inactive: 5.45% |
| CC(=O)NC(SC(=S)N(C)C)C(Cl)(Cl)Cl (stereo not given) | inactive: -0.64% |
| O=C(OC1CN2CCC1CC2)c1cccc(Cl)c1 (stereo not given) | inactive: -8.51% |
| C(Cc1nn[nH]n1)Cc1nn[nH]n1 | inactive: 7.65% |
| Nc1ccc([As](=O)(O)c2ccc([N+](=O)[O-])cc2)cc1 | inactive: 2.71% |

— PubChem BioAssay AID782 (Emory University Molecular Libraries Screening Center, 2007)
